Test [1] concerns the target T1, Heat shock protein HSP90 (Homo sapiens, UniProt P07900+P08238). Description: Binding affinity to recombinant full-length biotinylated-HSP90 N-terminal domain (9 to 236 residues) (unknown origin) expressed in Escherichia coli BL21 (DE3) assessed as association rate constant by biolayer interferometry. On the technique in general: Biolayer interferometry detects binding as a change in optical thickness at a sensor tip.

By UniProt entry, the sequences of proteins in these tests, tags left out.
UniProt P08238, whole entry, looked up: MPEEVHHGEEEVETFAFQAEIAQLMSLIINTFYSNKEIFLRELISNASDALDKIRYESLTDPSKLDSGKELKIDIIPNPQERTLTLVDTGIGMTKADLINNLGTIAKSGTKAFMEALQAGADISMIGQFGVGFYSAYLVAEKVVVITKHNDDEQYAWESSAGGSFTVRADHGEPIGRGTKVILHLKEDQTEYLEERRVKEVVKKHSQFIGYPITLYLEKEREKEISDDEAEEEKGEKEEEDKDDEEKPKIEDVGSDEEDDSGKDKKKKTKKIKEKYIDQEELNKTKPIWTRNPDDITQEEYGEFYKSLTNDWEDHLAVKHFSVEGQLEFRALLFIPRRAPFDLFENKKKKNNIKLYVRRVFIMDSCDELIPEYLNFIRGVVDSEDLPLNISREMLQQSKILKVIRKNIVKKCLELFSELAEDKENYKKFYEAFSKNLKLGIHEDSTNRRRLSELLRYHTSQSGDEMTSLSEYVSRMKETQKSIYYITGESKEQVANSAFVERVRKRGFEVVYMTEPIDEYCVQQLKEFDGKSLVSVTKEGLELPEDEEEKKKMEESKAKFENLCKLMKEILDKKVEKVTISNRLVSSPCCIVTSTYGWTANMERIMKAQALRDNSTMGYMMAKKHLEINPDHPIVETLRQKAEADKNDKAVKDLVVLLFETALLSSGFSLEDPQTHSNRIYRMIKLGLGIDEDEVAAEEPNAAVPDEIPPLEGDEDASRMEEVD

The target of test [2] is T1, Heat shock protein HSP90. Description: Binding affinity to recombinant full-length biotinylated-HSP90 N-terminal domain (9 to 236 residues) (unknown origin) expressed in Escherichia coli BL21 (DE3) assessed as dissociation rate constant by biolayer interferometry.

SMILES strings stand for the structures.

This passage reports K results from ChEMBL document CHEMBL4376883, “Discovery and Optimization of Small Molecules Targeting the Protein-Protein Interaction of Heat Shock Protein 90 (Hsp90) and Cell Division Cycle 37 as Orally Active Inhibitors for the Treatment of Colorectal Cancer” (J Med Chem, 2020).

In the case of `Cc1cc(C)c(S(=O)(=O)N(CC(=O)NO)c2ccc(Nc3ccnc(N4CCNCC4)n3)cc2)c(C)c1`, the K in test [1] amounted to 6350 M/s; in test [2], 0.02 s⁻¹.
Taken in the same sequence, the figures for `COC(=O)CN(c1ccc(Nc2ccnc(N3CCNCC3)n2)cc1)S(=O)(=O)c1c(C)cc(C)cc1C` were 20300 M/s and 0.04 s⁻¹.
For `Cc1cc(C)c(S(=O)(=O)N(Cc2nnn[nH]2)c2ccc(Nc3ccnc(N4CCNCC4)n3)cc2)c(C)c1`, in that order: 7010 M/s and 0.04 s⁻¹.
